Test results reported in PMC9471048.

The chains behind the UniProt entries cited, without tags or fusion partners.
UniProt P08913, whole entry: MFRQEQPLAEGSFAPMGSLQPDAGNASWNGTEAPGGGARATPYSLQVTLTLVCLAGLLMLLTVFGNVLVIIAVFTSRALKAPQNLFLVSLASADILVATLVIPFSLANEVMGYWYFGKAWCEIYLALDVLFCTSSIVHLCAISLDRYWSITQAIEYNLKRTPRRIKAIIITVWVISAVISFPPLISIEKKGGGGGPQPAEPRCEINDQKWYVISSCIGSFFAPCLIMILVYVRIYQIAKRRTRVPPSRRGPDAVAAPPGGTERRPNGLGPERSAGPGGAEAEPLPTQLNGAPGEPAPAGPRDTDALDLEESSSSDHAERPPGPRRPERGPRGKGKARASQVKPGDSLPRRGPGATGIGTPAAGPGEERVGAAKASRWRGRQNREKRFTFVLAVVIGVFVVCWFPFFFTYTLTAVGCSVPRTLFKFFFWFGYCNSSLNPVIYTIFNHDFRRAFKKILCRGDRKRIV
UniProt P18825, whole entry: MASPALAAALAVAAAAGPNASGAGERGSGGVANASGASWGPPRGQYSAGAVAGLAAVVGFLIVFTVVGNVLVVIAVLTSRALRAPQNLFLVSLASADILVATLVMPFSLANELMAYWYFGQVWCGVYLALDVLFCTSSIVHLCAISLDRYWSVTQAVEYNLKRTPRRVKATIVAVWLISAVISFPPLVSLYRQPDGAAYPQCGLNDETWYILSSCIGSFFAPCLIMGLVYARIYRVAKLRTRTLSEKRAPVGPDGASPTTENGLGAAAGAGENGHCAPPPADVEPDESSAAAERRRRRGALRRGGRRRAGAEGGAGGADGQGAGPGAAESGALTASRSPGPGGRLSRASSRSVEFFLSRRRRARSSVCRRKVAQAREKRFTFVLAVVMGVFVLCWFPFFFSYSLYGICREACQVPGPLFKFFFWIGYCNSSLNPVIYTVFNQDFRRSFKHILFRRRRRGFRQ

Assays:
human α2A‐adrenoceptor [1] = target: T1, human α2A‐adrenoceptor (Homo sapiens, UniProt P08913); settings: for IC50: Log IC50 (Gi); for EC50: Log EC50 (Gs)
human α2C‐adrenoceptor [2] = target: T2, human α2C‐adrenoceptor (Homo sapiens, UniProt P18825); settings: for IC50: Log IC50 (Gi), CRE‐SPAP (with forskolin)
human α2A‐adrenoceptor [3] = target: T1, human α2A‐adrenoceptor; test: 3H‐rauwolscine whole cell binding in CHO‐α2A cells
human α2C‐adrenoceptor [4] = target: T2, human α2C‐adrenoceptor; test: 3H‐rauwolscine whole cell binding in CHO‐α2C cells; settings: for Kd: Log KD

`CC(C)C[C@H]1C(=O)N2CCC[C@H]2[C@]2(O)O[C@](NC(=O)[C@@H]3C=C4c5cccc6[nH]c(Br)c(c56)C[C@H]4N(C)C3)(C(C)C)C(=O)N12` [Bromocriptine] was tested, and the “% inhibition, CRE‐SPAP (with forskolin)” value (human α2A‐adrenoceptor [1]) was 58.1 ± 3.8%, the “Log EC50 (Gs), CRE‐SPAP (without forskolin)” value (“Log EC50 … (without forskolin)” below) (human α2A‐adrenoceptor [1]) was “No response” and the IC50 (human α2A‐adrenoceptor [1]; CRE‐SPAP (with forskolin)) was 5.25 nM. For the same compound, the “% inhibition, CRE‐SPAP (with forskolin)” value (human α2C‐adrenoceptor [2]) was 62.3 ± 10.0%, the “Log EC50 … (without forskolin)” value (human α2C‐adrenoceptor [2]) was “No response” and the IC50 (human α2C‐adrenoceptor [2]) was 37.2 nM. The Kd (human α2A‐adrenoceptor [3]; Log KD (binding)) was 5.62 nM and the Kd (human α2C‐adrenoceptor [4]) was 23.4 nM.

With `Cc1cccc(Cc2c[nH]cn2)c1C` [Detomidine] the “% inhibition, CRE‐SPAP (with forskolin)” value (human α2A‐adrenoceptor [1]) was 82.6 ± 3.6%, the “Log EC50 … (without forskolin)” value (human α2A‐adrenoceptor [1]) was “No response” and the “Log efficacy ratio (KD/IC50)” value (human α2A‐adrenoceptor [1]) was 0.98. For the same compound, the IC50 (human α2A‐adrenoceptor [1]; CRE‐SPAP (with forskolin)) was 4.07 nM, the “% inhibition, CRE‐SPAP (with forskolin)” value (human α2C‐adrenoceptor [2]) was 80.8 ± 4.5% and the “Log EC50 … (without forskolin)” value (human α2C‐adrenoceptor [2]) was “No response”. The “Log efficacy ratio (KD/IC50)” value (human α2C‐adrenoceptor [2]) was 1.37, the IC50 (human α2C‐adrenoceptor [2]) was 3.31 nM and the “Selectivity ratio α2A vs α2B (higher affinity for α2A)” value (human α2A‐adrenoceptor [3]) was 1.8. The “Selectivity ratio α2A vs α2C (higher affinity for α2A)” value (human α2A‐adrenoceptor [3]) was 2.0, the Kd (human α2A‐adrenoceptor [3]; Log KD (binding)) was 38.9 nM and the Kd (human α2A‐adrenoceptor [3]; Log KD, CHO‐α2A) was 38.9 nM. The Kd (human α2C‐adrenoceptor [4]) was 77.6 nM and the Kd (human α2C‐adrenoceptor [4]; CHO‐α2C) was 77.6 nM.

`Clc1ccc2nsnc2c1NC1=NCCN1` [Tizanidine] was tested, and the “Log efficacy ratio (KD/IC50)” value (human α2A‐adrenoceptor [1]) was 1.62, the EC50 (human α2A‐adrenoceptor [1]; CRE‐SPAP (with forskolin)) was 1510 nM and the EC50 (human α2A‐adrenoceptor [1]; CRE‐SPAP (without forskolin)) was 1410 nM. For the same compound, the IC50 (human α2A‐adrenoceptor [1]; CRE‐SPAP (with forskolin)) was 25.7 nM, the “Log efficacy ratio (KD/IC50)” value (human α2C‐adrenoceptor [2]) was 0.69 and the “Selectivity ratio α2A vs α2B (higher affinity for α2A)” value (human α2A‐adrenoceptor [3]) was 1.5. For the same compound, the “Selectivity ratio α2A vs α2C (higher affinity for α2A)” value (human α2A‐adrenoceptor [3]) was 1.4, the Kd (human α2A‐adrenoceptor [3]; Log KD (binding)) was 1070 nM and the Kd (human α2A‐adrenoceptor [3]; Log KD, CHO‐α2A) was 1070 nM. The “Selectivity ratio α2B vs α2C (higher affinity for α2C)” value (human α2C‐adrenoceptor [4]) was 1.1.

In the case of `CC(N)C(O)c1ccc(O)c(O)c1` (stereo not drawn) [α‐methylnorepinephrine], the “Log efficacy ratio (KD/IC50)” value (human α2A‐adrenoceptor [1]) is reported as 2.78, the “Log efficacy ratio (KD/IC50)” value (human α2C‐adrenoceptor [2]) is reported as 1.36 and the “Selectivity ratio α2A vs α2C (higher affinity for α2C)” value (human α2C‐adrenoceptor [4]) is reported as 29.5. The “Selectivity ratio α2B vs α2C (higher affinity for α2C)” value (human α2C‐adrenoceptor [4]) was 22.9.

Where two headings read alike, the source gives them in different places.
